Assay results taken from paper PMC9772221 (Archives of biochemistry and biophysics, 2022).

System: PYCR3
Experiment: Competitive
Format: biochemical, human
Conditions: times/fold

## O=CN1CCC[C@H]1C(=O)O [Compound 2, N-formyl-L-proline]
  selectivity for PYCR1 over PYCR3 (Ki PYCR3 relative to Ki PYCR1): ~ 10
Listed as N-formyl-L-proline
  selectivity for PYCR1 over PYCR3 (Ki PYCR3 relative to Ki PYCR1): 10
